Results: patent publication US20130310347A1, “MULTI-MODALITY MOLECULAR IMAGING HIGH-THROUGHPUT ASSAY FOR IDENTIFYING HEAT SHOCK PROTEIN 90 (HSP90) INHIBITORS” (The Board of Trustees of the Leland Stanford Junior …, priority 2012, published 2013)

The chains behind the UniProt entries cited, without tags or fusion partners.
UniProt P08238, whole entry: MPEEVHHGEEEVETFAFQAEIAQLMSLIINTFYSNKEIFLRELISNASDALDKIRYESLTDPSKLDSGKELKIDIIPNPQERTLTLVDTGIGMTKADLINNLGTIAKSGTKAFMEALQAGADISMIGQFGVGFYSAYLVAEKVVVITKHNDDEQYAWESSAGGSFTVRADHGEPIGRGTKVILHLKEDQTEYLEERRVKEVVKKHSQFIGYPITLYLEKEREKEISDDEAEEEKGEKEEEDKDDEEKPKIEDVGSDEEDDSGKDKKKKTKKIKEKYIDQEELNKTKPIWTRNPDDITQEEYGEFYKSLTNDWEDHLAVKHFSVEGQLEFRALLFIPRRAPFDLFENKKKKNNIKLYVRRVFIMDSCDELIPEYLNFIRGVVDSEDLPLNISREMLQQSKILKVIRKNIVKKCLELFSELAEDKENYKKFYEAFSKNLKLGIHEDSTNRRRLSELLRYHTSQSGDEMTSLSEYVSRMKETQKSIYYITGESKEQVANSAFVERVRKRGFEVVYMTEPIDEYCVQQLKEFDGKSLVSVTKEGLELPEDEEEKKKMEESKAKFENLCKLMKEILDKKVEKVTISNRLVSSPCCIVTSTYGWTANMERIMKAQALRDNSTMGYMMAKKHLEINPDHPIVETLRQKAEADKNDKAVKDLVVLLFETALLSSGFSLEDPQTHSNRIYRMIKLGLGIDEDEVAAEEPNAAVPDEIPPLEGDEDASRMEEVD

Tests used:
[1] = molecular target: T1, Hsp90α/p23 interactions (Homo sapiens, UniProt P07900); test: CP9 analogue evaluation, RL/FL imaging in 293Tα-FG cells
Method: (§1) To improve the efficacy of CP9 in disruption of Hsp90(α/β)/p23 interactions in living mice, a structure-activity relationship (SAR) study was performed using 62 structural analogues (10 μM) with different modifications on CP9, as shown in FIGS. 2A-2G, using the 293T(α/β)-FG stable cells. Their effects on Hsp90(α/β)/p23 interactions and cell proliferation were monitored by sequential RL (FIG. 11A) and FL imaging at 24 h. CP9, PU-H71 and 17-AAG were used as positive controls. The net effect on Hsp90(α/β)/p23 interactions was determined by normalizing RL to that of FL signals and to that of carrier control-treated cells (FIG. 11B). […]
(§2) CP9 (0.3-10 μM), 17-AAG (10 μM) and PU-H71 (5 μM) were used as positive controls in triplicate wells. The efficacy of the analogues in disruption of Hsp90(α/β)/p23 and cell proliferation were monitored by RL imaging (2 h post upon addition of ENDUREN® at 30 μM final concentration) followed by FL imaging (10 mins post addition of D-Luc at 0.225 mg/ml final concentration) using a cooled CCD camera (1 min and 10 sec for RL and FL imaging, respectively). […] The effect of the CP9 analogues on degradation of Hsp90 client proteins in 293T cells were also monitored by western blotting as described above.

[2] = logP value (partition coefficient); assay type: physicochemical
[3] = molecular target: T1, Hsp90α/p23 interactions; test: RL/FL bioluminescence imaging of 293T xenografts in living mice; conditions: 4 doses of A17 (80 mg/kg); 43 h; p>0.05
Method: (§3) Maximum radiance (photons/sec/cm^2/sr) from RL signals was normalized to that of FL signals at each site and at each time point to account for the effect of CP9 on cell proliferation. The RL/FL ratios were normalized to that of time 0 h to monitor the individual change in Hsp90(α/β)/p23 interactions in each mouse over time. Results were expressed as mean±S.E.M for the control and treatment groups for Hsp90α/p23 (left panel) and Hsp90β/p23 interactions (right panel).
(§4) To monitor the inhibition of Hsp90(α/β)/p23 interactions by CP9 in living mice, a second reporter (FL-eGFP) was introduced into the 293T cells stably expressing Hsp90(α/β)/p23 split RL reporters (now referred as 293T(α/β)—FG cells). […] Baseline RL and FL signals in each implanted tumor were determined upon i.v. substrate injection. […]
(§5) Mice were gas anesthetized using isofluorane (2% in 100% oxygen, 1 L/min) during all injection and imaging procedures and kept at 37° C. […] Baseline RL activities in the implanted tumors in living mice were determined by i.v. injection of 30 μg cltz (in 150 μl of 5% ethanol: 95% PBS) and image acquisition of 3 mins. After a 30 mins wait for RL signals to decay, FL activities were determined by i.v. injection of 163 μg of D-Luc in 100 μl PBS with image acquisition of 10 sequences for 15 sec each to obtain the peak max radiance. […]

[4] = molecular target: Hsp90β/p23 interactions (Homo sapiens, UniProt P08238); test: as above; conditions: 4 doses of A17 (80 mg/kg); p>0.05
Method: as §3, §4, §5

[5] = test system: Hsp90(α/β)/p23 interactions; test: CP9 analogue evaluation in 293T(α/β)-FG cells, both isoforms stated jointly
Method: as §1, §2

fold reduction in IC50 for inhibition of Hsp90α/p23 signals compared to CP9 [1]: 3 fold | IC50 ([1]; read-out: IC50 for inhibition of Hsp90α/p23 signals, time- and dose-response curves in 293T-FG cells): 150 nM | logP value (partition coefficient) [2]: 2.8 | Hsp90β/p23 interactions in mice bearing 293T xenografts [4]: did not lead to significant decrease
SMILES: Cc1cc(NC(=O)CSc2nc(-c3ccco3)cc(C(F)(F)F)n2)no1
Hsp90α/p23 interactions in mice bearing 293T xenografts [3]: decreases in Hsp90 α/p23 interactions at 43 h but of limited statistical significance | SAR: efficacy in disruption of Hsp90(α/β)/p23 interactions ([5]; comparison of R1, R2, R3 substitutions): higher potency than for the parental compound | inhibition of Hsp90(α/β)/p23 interactions compared to CP9 ([5]; time- and dose-response curves): more effective than CP9
